## Measured affinities in a library of Ab-14 light chain variants

From the AlphaSeq antibody data of Engelhart et al. 2022 (doi:10.1038/s41597-022-01779-4), copy in the FLAb collection.

Target: peptide PDVDLGDISGINAS, taken from heptad repeat 2 (HR2) of SARS-CoV-2 spike.

The variants keep the heavy chain, the linker and the frameworks of Ab-14 (scFv order VH, a 15-residue (Gly4Ser)3 linker, VL).
VH: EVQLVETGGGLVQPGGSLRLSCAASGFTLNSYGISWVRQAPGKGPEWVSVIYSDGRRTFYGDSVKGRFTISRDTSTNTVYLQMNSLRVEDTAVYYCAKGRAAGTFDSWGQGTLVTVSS
VL: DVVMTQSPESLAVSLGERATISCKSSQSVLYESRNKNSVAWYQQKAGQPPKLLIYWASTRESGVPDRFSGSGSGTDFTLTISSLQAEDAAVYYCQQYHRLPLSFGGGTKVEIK

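The library (AAYL50) carries one to three amino acid substitutions per variant, with no insertions or deletions. The assay is AlphaSeq: two haploid yeast populations carry antibody and antigen on their surface. Binding brings cells together so that they mate, and sequencing counts the barcode pairs among the diploids. Each replicate has its own calibration line, from reference interactions of the BCL2 family. Each pool was mated in three replicate cultures.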

Substitutions are numbered in sequence along the VL above, starting at 1 (not Kabat).
Every variant below is changed at V29 of the VL (sequential numbering).
Values are apparent Kd, the geometric mean of the replicates that gave a signal; lower means stronger binding.
Where no diploid with the target was found in any replicate, the entry reads "nd": below detection, most likely a poor binder, though not proof of it.
Three control strains display no target. For library AAYL50, 18% of the pairings with them gave a signal, with a median of 15 µM and one signal in twenty below 970 nM, so weak values seen in few replicates may be background. The control count says in how many pairings with the empty strains this scFv gave a signal.

With V29D+R60L+H98P the result was nd (0 of 3 replicates; controls 0 of 9).
With V29G+Y31L+R34Y the result was 4.9 nM (3 of 3 replicates; controls 1 of 9).
With V29F+S38T+W56C the result was 44 nM (3 of 3 replicates; controls 0 of 9).
With V29S+N35G+K36G the result was 36 nM (3 of 3 replicates; controls 0 of 9).
With V29T+H98E the result was 49 nM (3 of 3 replicates; controls 1 of 9).
With V29K+S33H+A57C the result was nd (0 of 3 replicates; controls 0 of 9).
With K24A+V29S+K36A the result was 58 nM (3 of 3 replicates; controls 4 of 9).
With S26F+V29W+L102M the result was 24 µM (1 of 3 replicates; controls 3 of 9).
With V29W+A57Y+H98V the result was nd (0 of 3 replicates; controls 0 of 9).
With V29Y+N35K+S58V the result was 960 nM (3 of 3 replicates; controls 0 of 9).
With V29G+S58D+S62R the result was 3.8 nM (3 of 3 replicates; controls 0 of 9).
With V29M+E32P+E61I the result was 19 nM (3 of 3 replicates; controls 2 of 9).
With V29D+S33Q+Q95W the result was 110 nM (3 of 3 replicates; controls 2 of 9).
With Q27C+V29Q+Q96W the result was 54 nM (3 of 3 replicates; controls 1 of 9).
With V29P+K36M+H98V the result was nd (0 of 3 replicates; controls 3 of 9).
With V29D+A40F+S103L the result was 1.6 mM (1 of 3 replicates; controls 5 of 9).
With S26E+V29Q+R60K the result was 160 nM (3 of 3 replicates; controls 0 of 9).
With V29R+S38D+A40P the result was nd (0 of 3 replicates; controls 0 of 9).
With K24H+V29G the result was 4.4 nM (3 of 3 replicates; controls 1 of 9).
With V29K+W56Q+Q96A the result was 710 pM (3 of 3 replicates; controls 2 of 9).
With S28P+V29M+Q95T the result was nd (0 of 3 replicates; controls 1 of 9).
With V29W+S38I+E61I the result was nd (0 of 3 replicates; controls 0 of 9).
With V29A+S62M+Q95D the result was 74 µM (2 of 3 replicates; controls 1 of 9).
With V29F+S33L+A57V the result was 1.3 µM (3 of 3 replicates; controls 3 of 9).
With V29K+N37W+H98F the result was 47 nM (3 of 3 replicates; controls 3 of 9).
With Q27I+V29R+E61Q the result was 420 nM (3 of 3 replicates; controls 1 of 9).
With S25E+V29Y+A40T the result was 1.1 µM (1 of 3 replicates; controls 1 of 9).
With V29G+L30C the result was 4.4 µM (1 of 3 replicates; controls 1 of 9).
With V29S+R34D the result was 4.6 nM (3 of 3 replicates; controls 7 of 9).
With S28G+V29F+K36W the result was 7.8 nM (3 of 3 replicates; controls 2 of 9).
With V29K+S33I+R99V the result was 16 nM (3 of 3 replicates; controls 1 of 9).
With V29Y+A40D+P101D the result was nd (0 of 3 replicates; controls 0 of 9).
With V29E+A40L+L102Y the result was nd (0 of 3 replicates; controls 0 of 9).
With V29I+R34L+N35R the result was 21 nM (3 of 3 replicates; controls 2 of 9).
With V29W+A40F+H98R the result was 10 µM (2 of 3 replicates; controls 2 of 9).
With V29I+N37A+R60F the result was 100 µM (2 of 3 replicates; controls 0 of 9).
With V29N+E61Y the result was 1.9 nM (3 of 3 replicates; controls 0 of 9).
With K24T+S26V+V29Q the result was 250 nM (3 of 3 replicates; controls 0 of 9).
With Q27W+V29Q+L102C the result was nd (0 of 3 replicates; controls 0 of 9).
With V29N the result was 24 nM (3 of 3 replicates; controls 1 of 9).
With S26G+V29G+L30M the result was 4.6 nM (3 of 3 replicates; controls 1 of 9).
With V29F+A57H+L100N the result was 2.7 µM (1 of 3 replicates; controls 1 of 9).
With V29A+N37W+R60F the result was 410 nM (1 of 3 replicates; controls 0 of 9).
With V29P+Y31S+E32P the result was 13 nM (3 of 3 replicates; controls 2 of 9).
With V29F+W56G+P101T the result was 140 pM (3 of 3 replicates; controls 1 of 9).
With V29N+E61G the result was 24 nM (3 of 3 replicates; controls 0 of 9).
With V29T+R34D+Y97K the result was nd (0 of 3 replicates; controls 1 of 9).
With S26C+V29E+S38V the result was nd (0 of 3 replicates; controls 0 of 9).
With S26G+V29Y the result was 290 nM (3 of 3 replicates; controls 3 of 9).

Extract of 6 entries:

Variant S26C+V29E+S38V gave nd (0 of 3 replicates; controls 0 of 9).
Variant V29K+W56Q+Q96A gave 710 pM (3 of 3 replicates; controls 2 of 9).
Variant V29I+N37A+R60F gave 100 µM (2 of 3 replicates; controls 0 of 9).
Variant V29G+S58D+S62R gave 3.8 nM (3 of 3 replicates; controls 0 of 9).
Variant V29W+A57Y+H98V gave nd (0 of 3 replicates; controls 0 of 9).
Variant V29P+Y31S+E32P gave 13 nM (3 of 3 replicates; controls 2 of 9).